# From US10953037B2, “Chondroitin sulfate derivative and agent for treating bladder diseases” (priority 2015, dated 2021)
# Several values for one entry are separate records, joined by “and”; a condition that tells them apart may be missing. Equal values may be shown once.
# Assay: not given
# Conditions: borate buffer pH 8.0, 36° C., elapsed time 0 days, 5 mg/10 mL
row,Substance,Drug release ratio
1,CS introduced with 21-β-Alanyl-Betamethasone [CS-βAla-BTM],0.6%
2,CS introduced with 21-Glycyl-Triamcinolone Acetonide [CS-Gly-TA],0.0%
3,CS introduced with 21-β-Alanyl-Prednisolone [CS-βAla-PRED],0.6%
4,CS introduced with 21-β-Alanyl-Triamcinolone Acetonide [CS-βAla-TA],1.3% and 0.0%
5,CS introduced with 21-Isoleucyl-Triamcinolone Acetonide [CS-Ile-TA],0.0%

# Same assay, conditions: borate buffer pH 8.0, 36° C., elapsed time 1 day, 5 mg/10 mL
row,Substance,Drug release ratio
1,CS introduced with 21-β-Alanyl-Betamethasone [CS-βAla-BTM],2.9%
2,CS introduced with 21-Glycyl-Triamcinolone Acetonide [CS-Gly-TA],13.1%
3,CS introduced with 21-β-Alanyl-Prednisolone [CS-βAla-PRED],7.0%
4,CS introduced with 21-β-Alanyl-Triamcinolone Acetonide [CS-βAla-TA],2.7% and 1.0%
5,CS introduced with 21-Isoleucyl-Triamcinolone Acetonide [CS-Ile-TA],0.3%

# Same assay, conditions: borate buffer pH 8.0, 36° C., elapsed time 2 days, 5 mg/10 mL
row,Substance,Drug release ratio
1,CS introduced with 21-β-Alanyl-Betamethasone [CS-βAla-BTM],4.8%
2,CS introduced with 21-Glycyl-Triamcinolone Acetonide [CS-Gly-TA],23.2%
3,CS introduced with 21-β-Alanyl-Prednisolone [CS-βAla-PRED],12.5%
4,CS introduced with 21-β-Alanyl-Triamcinolone Acetonide [CS-βAla-TA],4.2% and 2.4%
5,CS introduced with 21-Isoleucyl-Triamcinolone Acetonide [CS-Ile-TA],0.5%

# Same assay, conditions: borate buffer pH 8.0, 36° C., elapsed time 3 days, 5 mg/10 mL
row,Substance,Drug release ratio
1,CS introduced with 21-β-Alanyl-Betamethasone [CS-βAla-BTM],6.7%
2,CS introduced with 21-Glycyl-Triamcinolone Acetonide [CS-Gly-TA],32.0%
3,CS introduced with 21-β-Alanyl-Prednisolone [CS-βAla-PRED],17.8%
4,CS introduced with 21-β-Alanyl-Triamcinolone Acetonide [CS-βAla-TA],5.7% and 3.7%
5,CS introduced with 21-Isoleucyl-Triamcinolone Acetonide [CS-Ile-TA],0.7%

# Same assay, conditions: borate buffer pH 8.0, 36° C., elapsed time 4 days, 5 mg/10 mL
row,Substance,Drug release ratio
1,CS introduced with 21-β-Alanyl-Betamethasone [CS-βAla-BTM],9.4%
2,CS introduced with 21-Glycyl-Triamcinolone Acetonide [CS-Gly-TA],39.0%
3,CS introduced with 21-β-Alanyl-Prednisolone [CS-βAla-PRED],22.5%
4,CS introduced with 21-β-Alanyl-Triamcinolone Acetonide [CS-βAla-TA],7.4% and 5.0%
5,CS introduced with 21-Isoleucyl-Triamcinolone Acetonide [CS-Ile-TA],1.1%

# Same assay, conditions: borate buffer pH 8.0, 36° C., elapsed time 5 days, 5 mg/10 mL
row,Substance,Drug release ratio
1,CS introduced with 21-β-Alanyl-Betamethasone [CS-βAla-BTM],11.4%
2,CS introduced with 21-Glycyl-Triamcinolone Acetonide [CS-Gly-TA],44.7%
3,CS introduced with 21-β-Alanyl-Prednisolone [CS-βAla-PRED],27.3%
4,CS introduced with 21-β-Alanyl-Triamcinolone Acetonide [CS-βAla-TA],8.6% and 6.4%
5,CS introduced with 21-Isoleucyl-Triamcinolone Acetonide [CS-Ile-TA],1.4%

# Same assay, conditions: borate buffer pH 8.0, 36° C., elapsed time 6 days, 5 mg/10 mL
row,Substance,Drug release ratio
1,CS introduced with 21-β-Alanyl-Betamethasone [CS-βAla-BTM],13.2%
2,CS introduced with 21-Glycyl-Triamcinolone Acetonide [CS-Gly-TA],49.2%
3,CS introduced with 21-β-Alanyl-Prednisolone [CS-βAla-PRED],31.6%
4,CS introduced with 21-β-Alanyl-Triamcinolone Acetonide [CS-βAla-TA],10.0% and 7.8%
5,CS introduced with 21-Isoleucyl-Triamcinolone Acetonide [CS-Ile-TA],1.8%

# Same assay, conditions: borate buffer pH 8.0, 36° C., elapsed time 7 days, 5 mg/10 mL
row,Substance,Drug release ratio
1,CS introduced with 21-β-Alanyl-Betamethasone [CS-βAla-BTM],15.0%
2,CS introduced with 21-Glycyl-Triamcinolone Acetonide [CS-Gly-TA],53.9%
3,CS introduced with 21-β-Alanyl-Prednisolone [CS-βAla-PRED],35.1%
4,CS introduced with 21-β-Alanyl-Triamcinolone Acetonide [CS-βAla-TA],11.3% and 9.0%
5,CS introduced with 21-Isoleucyl-Triamcinolone Acetonide [CS-Ile-TA],2.1%

# Same assay, conditions: borate buffer pH 8.0, 36° C., over 1 week
row,Substance,Release Rate (%/day)
1,CS introduced with 21-β-Alanyl-Betamethasone [CS-βAla-BTM],2.1%/day
2,CS introduced with 21-β-Alanyl-Prednisolone [CS-βAla-PRED],4.9%/day
3,CS introduced with 21-β-Alanyl-Triamcinolone Acetonide [CS-βAla-TA],1.4%/day and 1.3%/day
4,CS introduced with 21-Isoleucyl-Triamcinolone Acetonide [CS-Ile-TA],0.3%/day

# Same assay, conditions: both pH 7.4 and pH 8.0, 36° C.
row,Substance,"Release rate, comparison among the tested derivatives (in words)"
1,CS introduced with 21-β-Alanyl-Betamethasone [CS-βAla-BTM],roughly equal
2,CS introduced with 21-Glycyl-Triamcinolone Acetonide [CS-Gly-TA],release rate was the highest
3,CS introduced with 21-β-Alanyl-Prednisolone [CS-βAla-PRED],highest release rate
4,CS introduced with 21-Isoleucyl-Triamcinolone Acetonide [CS-Ile-TA],followed by CS-βAla-TA and CS-Ile-TA in that order

# Same assay, conditions: phosphate buffer pH 7.4, 36° C., elapsed time 0 days, 5 mg/10 mL
row,Substance,Drug release ratio
1,CS introduced with 21-β-Alanyl-Betamethasone [CS-βAla-BTM],0.5%
2,CS introduced with 21-Glycyl-Triamcinolone Acetonide [CS-Gly-TA],0.0%
3,CS introduced with 21-β-Alanyl-Prednisolone [CS-βAla-PRED],0.6%
4,CS introduced with 21-β-Alanyl-Triamcinolone Acetonide [CS-βAla-TA],1.3% and 0.0%
5,CS introduced with 21-Isoleucyl-Triamcinolone Acetonide [CS-Ile-TA],0.0%

# Same assay, conditions: phosphate buffer pH 7.4, 36° C., elapsed time 1 day, 5 mg/10 mL
row,Substance,Drug release ratio [%]
1,CS introduced with 21-β-Alanyl-Betamethasone [CS-βAla-BTM],1.2
2,CS introduced with 21-Glycyl-Triamcinolone Acetonide [CS-Gly-TA],5.3
3,CS introduced with 21-β-Alanyl-Prednisolone [CS-βAla-PRED],3.5
4,CS introduced with 21-Isoleucyl-Triamcinolone Acetonide [CS-Ile-TA],0.1

# Same assay, conditions: phosphate buffer pH 7.4, 36° C., elapsed time 2 days, 5 mg/10 mL
row,Substance,Drug release ratio [%]
1,CS introduced with 21-β-Alanyl-Betamethasone [CS-βAla-BTM],1.7
2,CS introduced with 21-Glycyl-Triamcinolone Acetonide [CS-Gly-TA],10.1
3,CS introduced with 21-β-Alanyl-Prednisolone [CS-βAla-PRED],5.6
4,CS introduced with 21-Isoleucyl-Triamcinolone Acetonide [CS-Ile-TA],0.2

# Same assay, conditions: phosphate buffer pH 7.4, 36° C., elapsed time 3 days, 5 mg/10 mL
row,Substance,Drug release ratio
1,CS introduced with 21-β-Alanyl-Betamethasone [CS-βAla-BTM],2.4%
2,CS introduced with 21-Glycyl-Triamcinolone Acetonide [CS-Gly-TA],15.0%
3,CS introduced with 21-β-Alanyl-Prednisolone [CS-βAla-PRED],7.8%
4,CS introduced with 21-β-Alanyl-Triamcinolone Acetonide [CS-βAla-TA],3.7% and 1.3%
5,CS introduced with 21-Isoleucyl-Triamcinolone Acetonide [CS-Ile-TA],0.3%

# Same assay, conditions: phosphate buffer pH 7.4, 36° C., elapsed time 4 days, 5 mg/10 mL
row,Substance,Drug release ratio
1,CS introduced with 21-β-Alanyl-Betamethasone [CS-βAla-BTM],3.2%
2,CS introduced with 21-Glycyl-Triamcinolone Acetonide [CS-Gly-TA],19.4%
3,CS introduced with 21-β-Alanyl-Prednisolone [CS-βAla-PRED],10.0%
4,CS introduced with 21-β-Alanyl-Triamcinolone Acetonide [CS-βAla-TA],4.5% and 1.8%
5,CS introduced with 21-Isoleucyl-Triamcinolone Acetonide [CS-Ile-TA],0.4%

# Same assay, conditions: phosphate buffer pH 7.4, 36° C., elapsed time 5 days, 5 mg/10 mL
row,Substance,Drug release ratio
1,CS introduced with 21-β-Alanyl-Betamethasone [CS-βAla-BTM],3.8%
2,CS introduced with 21-Glycyl-Triamcinolone Acetonide [CS-Gly-TA],23.8%
3,CS introduced with 21-β-Alanyl-Prednisolone [CS-βAla-PRED],12.0%
4,CS introduced with 21-β-Alanyl-Triamcinolone Acetonide [CS-βAla-TA],5.0% and 2.3%
5,CS introduced with 21-Isoleucyl-Triamcinolone Acetonide [CS-Ile-TA],0.6%

# Same assay, conditions: phosphate buffer pH 7.4, 36° C., elapsed time 6 days, 5 mg/10 mL
row,Substance,Drug release ratio
1,CS introduced with 21-β-Alanyl-Betamethasone [CS-βAla-BTM],4.4%
2,CS introduced with 21-Glycyl-Triamcinolone Acetonide [CS-Gly-TA],28.0%
3,CS introduced with 21-β-Alanyl-Prednisolone [CS-βAla-PRED],14.3%
4,CS introduced with 21-β-Alanyl-Triamcinolone Acetonide [CS-βAla-TA],5.9% and 2.8%
5,CS introduced with 21-Isoleucyl-Triamcinolone Acetonide [CS-Ile-TA],0.8%

# Same assay, conditions: phosphate buffer pH 7.4, 36° C., elapsed time 7 days, 5 mg/10 mL
row,Substance,Drug release ratio
1,CS introduced with 21-β-Alanyl-Betamethasone [CS-βAla-BTM],5.0%
2,CS introduced with 21-Glycyl-Triamcinolone Acetonide [CS-Gly-TA],31.5%
3,CS introduced with 21-β-Alanyl-Prednisolone [CS-βAla-PRED],16.2%
4,CS introduced with 21-β-Alanyl-Triamcinolone Acetonide [CS-βAla-TA],6.7% and 3.4%
5,CS introduced with 21-Isoleucyl-Triamcinolone Acetonide [CS-Ile-TA],0.7%

# Same assay, conditions: phosphate buffer pH 7.4, 36° C., over 1 week
row,Substance,Release Rate (%/day)
1,CS introduced with 21-β-Alanyl-Betamethasone [CS-βAla-BTM],0.7%/day
2,CS introduced with 21-Glycyl-Triamcinolone Acetonide [CS-Gly-TA],4.5%/day
3,CS introduced with 21-β-Alanyl-Prednisolone [CS-βAla-PRED],2.2%/day
4,CS introduced with 21-β-Alanyl-Triamcinolone Acetonide [CS-βAla-TA],0.8%/day and 0.5%/day
5,CS introduced with 21-Isoleucyl-Triamcinolone Acetonide [CS-Ile-TA],0.1%/day

# Assay: Test Example B3: body weight change (systemic adverse side effects)
# Conditions: rat, in vivo
# Protocol: Body weight changes were determined by measuring body weight four times, namely before surgery, after surgery and immediately before the induction with hydrochloric acid, immediately before administering the test substance (before agent administration), and immediately before measurement of intravesical pressure (cystometry), and are indicated as relative values based on a value of 100% for the body weight prior to surgery for each animal.
# Furthermore, changes in body weight were measured under the same conditions as in Test Example B2.
# Mean±standard error (number of animals per group: 5 to 8)
Substance,"Body weight, Before Surgery (%)","Body weight, Before agent administration (%)","Body weight, Before cystometry (%)","Body weight, Before induction with hydrochloric acid (%)"
CS introduced with 21-β-Alanyl-Betamethasone [CS-βAla-BTM],100.0 ± 0.0,99.5 ± 1.3,101.7 ± 1.3,102.5 ± 1.6

# Assay: not given
# Conditions: rat, in vivo
Substance,"Body weight, Before Surgery (%)","Body weight, Before agent administration (%)","Body weight, Before cystometry (%)","Body weight, Before induction with hydrochloric acid (%)",Weight loss in comparison with prior to agent administration (in words),Wet thymus weight
CS introduced with 21-Glycyl-Triamcinolone Acetonide [CS-Gly-TA],100.0 ± 0.0,96.7 ± 1.2,89.0 ± 1.7,101.4 ± 0.7,prominent weight loss was only observed,significant decreases in wet thymus weight were only observed
CS introduced with 21-β-Alanyl-Triamcinolone Acetonide [CS-βAla-TA],100.0 ± 0.0,96.9 ± 1.3,97.8 ± 1.5,100.8 ± 1.1,weight loss was not observed,significant decreases in wet thymus weight were not observed
CS introduced with 21-Isoleucyl-Triamcinolone Acetonide [CS-Ile-TA],100.0 ± 0.0,95.7 ± 1.6,99.6 ± 1.2,98.9 ± 1.3,weight loss was not observed,significant decreases in wet thymus weight were not observed
